According to EP4825847A1, “NMDA RECEPTOR ANTAGONIST AND USE THEREOF” (dated 2026):
Where a name gives a salt, the structure may show the parent alone.

Tests used:
[1] = Solution stability: purity of the solution over 24 hrs in the solubility test; conditions: for solution stability: summary in words
Description: The solubilities of different forms of the compounds in media with different pH values were tested. The compound sample was weighed into a glass flask, and 1 mL or 2 mL of phosphate buffer pH=6.0, pure water, phosphate buffer pH=8.0, and/or 0.9% physiological saline respectively was added respectively, and magnetically stirred at 20°C for 24 hrs. A sample was taken for solubility test, and the purity of the solution over 24 hrs was tested. Table 18: Solubility test results of different crystal forms of the salts of Compound 2 in media with different pH values

C57BL/6J male mice [2] = assay: Open field test of mice; conditions: intraperitoneal administration of 10 mg/kg; compared with the vehicle group
Source text: Open field test is a standard behavioral method to evaluate the voluntary movement behavior and the exploratory behavior, which is widely used in the research of neurological and psychiatric diseases such as depression, anxiety, Parkinson's disease and screening of drugs acting on central nervous system.
Due to the limited tests to evaluate the hallucinogenic effect of NMDAR antagonists, the open field test is used in the present invention to evaluate whether the compound affects the spontaneous locomotor activity of mice and also used to indirectly evaluate whether the compound has hallucinogenic effect. Furthermore, the increase of spontaneous locomotor activity of mice is also considered as one of the positive symptoms of schizophrenia. Therefore, the open field test can also be used to evaluate whether the compound has the psychotomimetic-like side effects.
The animal information was the same as that in Test Example 2. The number of animals in each group (N) was 10, the administration mode was intraperitoneal injection or oral administration, the dosage of administration was 5 or 10 mg/kg, and the volume of administration was 10 mL/kg.
Test process: The open field test chamber was a soundproof chamber made of opaque plexiglass and having an inner diameter of 40*40*40 cm, and the analysis software was purchased from Noldus (Ethovision XT 11.5). The test was carried out in a quiet environment. The animals were weighed and acclimated in the test chamber for at least 30 min before the test. Before the test, the software EthoVision XT 11.5 was set, the wild-type mice were placed at the center of the bottom of the chamber, and the activity within 30 min or 20 min was recorded as the baseline. After 30 min, the mice were taken out and given corresponding doses of solvent (control group) or test compound according to their body weight. Immediately after administration, the mice were placed in the same observation chamber as that in the baseline stage, and their activities within 40 min after administration were recorded. The instrument was wiped with 75% alcohol after each test, to avoid the influence of the information left by animals in the last round (such as the smell of animals' feces and urine) on the next test result. The next round of animals were changed to continue the test. After the test, data were collected for statistical analysis. The difference was analyzed by unpaired t-test to have statistical significance, where P<0.05 means that there was a significant difference. ^# P<0.05, * P<0.05, **P<0.01, ***P<0.001, **** P<0.0001. After the test, the distance (cm) traveled by the mice in the control and test compound groups every 5 min was statistically analyzed. 33 to 36.

C57BL/6J male mice [3] = assay: Pre-pulse inhibition test; conditions: 45 mg/kg i.p.
Source text: Pre-pulse inhibition phenomenon is an important parameter to evaluate the sensorimotor gating function, and an index to evaluate schizophrenia-like behavior. This phenomenon means that a weak stimulus occurring before a strong stimulus will reduce the degree of animal response to the strong stimulus. In the present invention, the PPI test was used to evaluate whether the compound could induce psychotomimetic-like behavior in mice.
The animal information was the same as that in Test Example 2. The number of animals in each group (N) was 10, and the administration mode was intraperitoneal injection or oral administration (p.o.). The dosage of S-ketamine was 20 mg/kg, the dosage of other compounds was 45 mg/kg, and the administration volume was 10 mL/kg. The dosage for oral administration was 10 mg/kg.
Test process: The test was carried out in a quiet environment. The mice were weighed and acclimated in the test chamber for at least 30 min before the test. The PPI test was divided into four stages, including: acclimation stage, Block 1, Block 2, and Block 3. At the beginning of the test, the mice were given corresponding doses of solvent (control group) or test compound according to their body weight. Then the mice were placed in a startle response chamber and allowed to acclimate for 5 min without stimulation. Then in Block 1-3, the mice were given startle stimuli of varying decibel intensities. In Block 1 and Block 3, 10 trials were set, and each trial had no pre-pulse stimuli. The startle stimulus was set to be white noise of 120 dB. The time interval between trials varies randomly from 10 to 15 sec. Block 2 was set to have 56 trials. There were three types of stimuli: (1) a continuous startle stimulus of 120 dB was given in 8 trials; (2) a pre-pulse stimulus of 67, 70, 73, or 76 dB was given first and then a startle stimulus of 120 dB was given in 32 trials, and only pre-pulse stimulus (two trials for each of the four pre-pulse stimuli) was given in 8 trials; and (3) no stimulus was given in 8 trials, and the duration was 200 ms. The duration of pre-pulse stimulus was 20 ms, and the fixed interval was 100 ms. The duration of startle stimulus in all Block was 40 ms, and the background noise was set to 62dB. The instrument was wiped with 75% alcohol after each test, to avoid the influence of the information left by animals in the last round (such as the smell of animals' feces and urine) on the next test result. The difference was analyzed by unpaired t-test to have statistical significance, where P<0.05 means that there was a significant difference. ^# P<0.05, * P<0.05, ** P<0.01, *** P<0.001. […] Compound 2SS mesylate tends to cause loss of PPI at a pre-pulse level of 67 dB and 70 dB. Compound 2RR mesylate causes loss of PPI at a pre-pulse level of 76 dB. […]

[4] = solution in 0.9% physiological saline, 24 h
[5] = solution in Phosphate buffer pH=6.0, 24 h
[6] = solution in Phosphate buffer pH=8.0, 24 h
[7] = solution in Pure water pH=6.8, 24 h

| Structure (SMILES) | Purity (24 h) [1, 4] [%] | Purity (24 h) [1, 5] [%] | Purity (24 h) [1, 6] [%] | Purity (24 h) [1, 7] [%] | solution stability [1] | distance traveled by the mice (C57BL/6J male mice [2]) | PPI compared with S-ketamine and the isomers 2SS and 2RR (C57BL/6J male mice [3]; S-ketamine 20 mg/kg) | PPI (C57BL/6J male mice [3]; native C57 mice) |
| --- | --- | --- | --- | --- | --- | --- | --- | --- |
| Clc1cccc([C@@]23CCCC[C@H]2OCCN3)c1 [Crystal Form A of Compound 2 hydrochloride] | 99.98 | 99.92 | 99.93 | 99.99 | good | no significant difference |  |  |
| Clc1cccc([C@@]23CCCC[C@H]2OCCN3)c1 [Crystal Form C of Compound 2 mesylate] | 99.98 | 99.53 | 99.88 | 99.98 | good | no significant difference | superior to S-ketamine and significantly superior to its two comparative molecular isomers 2SS and 2RR | does not affect the PPI |
